Measurements taken from patent US12201629B2 (priority 2017, dated 2025).

Test: Example 2: pharmacokinetics of oral and intravenous buprenorphine hydrochloride under naltrexone blockade
Conditions: i.v. 0.3 mg (as base) over 15 min

Which “Buprenorphine mean plasma concentration” value (0 h) does the source give for `CO[C@@]12CC[C@@]3(C[C@@H]1[C@](C)(O)C(C)(C)C)[C@H]1Cc4ccc(O)c5c4[C@@]3(CCN1CC1CC1)[C@H]2O5.Cl` [Buprenorphine i.v., Buprenorphine HCl] here?
The value was 0.146 ng/mL.

And the “Buprenorphine mean plasma concentration” value (0.033 h)?
The value was 0.186 ng/mL.

And the “Buprenorphine mean plasma concentration” value (0.083 h)?
Its value is 1.377 ng/mL.

What about the “Buprenorphine mean plasma concentration” value (0.167 h) of the same molecule?
The value was 2.380 ng/mL.

What about the “Buprenorphine mean plasma concentration” value (0.417 h) of the same molecule?
Its value is 2.314 ng/mL.

What about the “Buprenorphine mean plasma concentration” value (0.5 h) of the same molecule?
The value was 1.838 ng/mL.

What about the “Buprenorphine mean plasma concentration” value (0.75 h) of the same molecule?
Its value is 1.420 ng/mL.

And the “Buprenorphine mean plasma concentration” value (1.75 h)?
The value was 0.962 ng/mL.

And the “Buprenorphine mean plasma concentration” value (2.25 h)?
The value was 0.786 ng/mL.

And the “Buprenorphine mean plasma concentration” value (4.25 h)?
Its value is 0.535 ng/mL.

What about the “Buprenorphine mean plasma concentration” value (6.25 h) of the same molecule?
Its value is 0.453 ng/mL.

What about the “Buprenorphine mean plasma concentration” value (12.25 h) of the same molecule?
The value was 0.237 ng/mL.
